{"source": "patent EP3858345B1", "about": "“RADIOTRACER DERIVATIVES OF TRIMETHOPRIM FOR DIAGNOSTIC IMAGING” (dated 2026)", "key": {"[1]": {"test": "[^11C]TMP urinary excretion, radio-thin layer chromatography and bladder signal"}, "[2]": {"system": "DHFR tumors", "test": "[^11C]TMP biodistribution analysis, gamma counter"}, "[3]": {"system": "HCT116 tumors", "test": "[^11C]TMP small animal PET/CT of DHFR and control tumor xenografts", "details": "PET time activity curve, DHFR HCT116 cells compared to control cells"}, "[4]": {"system": "recombinant Ec DHFR protein", "test": "[^11C]TMP dot blot binding assay", "details": "Ec DHFR 100-4 µM on nitrocellulose, with or without cold TMP (10 µM)"}, "[5]": {"system": "HCT116 cells", "test": "[^11C]TMP cell uptake study, HCT116 control vs DHFR cells", "details": "at the time of assay"}, "[6]": {"system": "HEK293 cells", "test": "[^11C]TMP cell uptake study, HEK 293 control vs DHFR cells"}, "[7]": {"system": "Mouse breast cancer cells (4T1)", "test": "Tumor imaging in the infection v inflammation v tumor model", "details": "4T1 cells subcutaneously in left shoulder 12h prior to imaging"}, "[8]": {"system": "HCT116 DHFR cells", "test": "^18F-FP-TMP uptake/specificity study in DHFR cells", "details": "for 10 µM MTX Mean (uptake) / 10 µM TMP Mean (uptake) / DHFR Mean (uptake): HCT116 DHFR cells; for 10 µM MTX Mean (uptake): co-incubated with 10 µM MTX; for 10 µM TMP Mean (uptake): co-incubated with 10 µM TMP; for DHFR Mean (uptake): no competitor"}, "[9]": {"system": "HCT116", "test": "^18F-FP-TMP uptake/specificity study in control cells", "details": "for 10 µM MTX Mean (uptake): co-incubated with 10 µM MTX; for 10 µM TMP Mean (uptake): co-incubated with 10 µM TMP; for Control Mean (uptake): no competitor"}, "[10]": {"test": "Half-life of the radiotracer"}, "[11]": {"system": "293 DHFR cells", "test": "[^18F]FPTMP in vitro detection, serial dilutions of cells", "details": "2 hours incubation, gamma counter"}}}
{"molecule": "COc1cc(Cc2cnc(N)nc2N)cc(OC)c1O[11CH3]", "values": [{"measurement": "form excreted in the urine", "setting": "[1]; radio-thin layer chromatography of mouse urine", "result": "predominantly as the parent compound"}, {"measurement": "dose accumulating in the bladder", "setting": "[1]; under anesthesia, rapid accumulation", "result": "approximately 20%"}, {"measurement": "liver uptake", "setting": "[2]; 90 minutes after injection", "result": "modest liver uptake"}, {"measurement": "uptake from the kidneys", "setting": "[2]; 90 minutes after injection", "result": "significant uptake"}, {"measurement": "DHFR to control signal induction", "setting": "[2]; biodistribution 90 minutes after injection", "result": "over 3 fold"}, {"measurement": "uptake in the kidneys after oral TMP", "setting": "[2]; mice pretreated with oral TMP", "result": "marked decreased in uptake"}, {"measurement": "signal induction", "setting": "[3]", "result": "over 3 fold"}, {"measurement": "[^11C]TMP binding in dot blot", "setting": "[4]", "result": "concentration-dependent specific cell uptake"}, {"measurement": "induction", "setting": "[5]", "result": 3, "unit": "fold"}, {"measurement": "signal induction", "setting": "[6]; HEK293 DHFR cells vs control, at the time of assay", "result": "over 10 fold"}, {"measurement": "effect of MTX co-treatment on uptake", "setting": "[6]; in vitro, DHFR cells, inhibitory concentration of MTX", "result": "no change in the dynamic range of uptake"}, {"measurement": "effect of cold TMP co-treatment on uptake", "setting": "[6]; in vitro, co-treatment with cold TMP", "result": "blocked specific uptake"}, {"measurement": "uptake in control cells", "setting": "[6]; in vitro, control cells", "result": "little uptake"}]}
{"molecule": "OC[C@H]1OC(O)[C@H](F)[C@@H](O)[C@@H]1O", "note": "(stereo partly shown)", "values": [{"measurement": "uptake in tumor cells", "setting": "[7]", "result": "presence"}]}
{"molecule": "[^18F]Fluoropropyltrimethoprim", "values": [{"measurement": "induction in DHFR cells compared to control cells", "setting": "[8]; HCT116, 30 minutes", "result": "over 7 fold"}, {"measurement": "signal induction in DHFR cells compared to control cells", "setting": "[8]; HCT116, 120 minutes", "result": 15, "unit": "fold"}, {"measurement": "10 µM MTX Mean (uptake)", "setting": "[8]; 5 min", "result": 17.2}, {"measurement": "10 µM TMP Mean (uptake)", "setting": "[8]; 5 min", "result": 5.82}, {"measurement": "DHFR Mean (uptake)", "setting": "[8]; 5 min", "result": 14.3}, {"measurement": "10 µM MTX Mean (uptake)", "setting": "[8]; 30 min", "result": 30.4}, {"measurement": "10 µM TMP Mean (uptake)", "setting": "[8]; 30 min", "result": 6.66}, {"measurement": "DHFR Mean (uptake)", "setting": "[8]; 30 min", "result": 47.2}, {"measurement": "10 µM MTX Mean (uptake)", "setting": "[8]; 60 min", "result": 18.8}, {"measurement": "10 µM TMP Mean (uptake)", "setting": "[8]; 60 min", "result": 7.04}, {"measurement": "DHFR Mean (uptake)", "setting": "[8]; 60 min", "result": 87.1}, {"measurement": "10 µM MTX Mean (uptake)", "setting": "[8]; 120 min", "result": 9.42}, {"measurement": "10 µM TMP Mean (uptake)", "setting": "[8]; 120 min", "result": 8.38}, {"measurement": "DHFR Mean (uptake)", "setting": "[8]; 120 min", "result": 134.6}, {"measurement": "10 µM MTX Mean (uptake)", "setting": "[9]; 5 min", "result": 6.32}, {"measurement": "10 µM TMP Mean (uptake)", "setting": "[9]; 5 min", "result": 5.37}, {"measurement": "Control Mean (uptake)", "setting": "[9]; 5 min", "result": 5.11}, {"measurement": "10 µM MTX Mean (uptake)", "setting": "[9]; 30 min", "result": 5.59}, {"measurement": "10 µM TMP Mean (uptake)", "setting": "[9]; 30 min", "result": 5.83}, {"measurement": "Control Mean (uptake)", "setting": "[9]; 30 min", "result": 6.58}, {"measurement": "10 µM MTX Mean (uptake)", "setting": "[9]; 60 min", "result": 6.74}, {"measurement": "10 µM TMP Mean (uptake)", "setting": "[9]; 60 min", "result": 6.48}, {"measurement": "Control Mean (uptake)", "setting": "[9]; 60 min", "result": 7.37}, {"measurement": "10 µM MTX Mean (uptake)", "setting": "[9]; 120 min", "result": 8.62}, {"measurement": "10 µM TMP Mean (uptake)", "setting": "[9]; 120 min", "result": 7.61}, {"measurement": "Control Mean (uptake)", "setting": "[9]; 120 min", "result": 8.4}, {"measurement": "half-life", "setting": "[10]", "result": 1.83, "unit": "h"}, {"measurement": "uptake in tumor cells", "setting": "[7]", "result": "no"}, {"measurement": "in vitro detection sensitivity", "setting": "[11]", "result": "a few hundred DHFR cells"}]}
